Results reported in US20040259766A1, “Use of glutamate, glutamate derivatives or metabolites, glutamate analogues or mixtures thereof for the manufacture of a composition for the treatment of osteoporosis” (priority 2004, published 2004).

Experiments:
[1] = test system: humerus and femur; test: Architectural and geometric properties of humerus and femur of piglets; type: in vivo, pig; conditions: piglets at 35 days of postnatal life; 0.4 g/kg b.w. oral once a day; mean ± SEM
Method: All piglets suckled sow milk before weaning. After weaning at the age of 28 days piglets were fed ad libitum with a standard mixture Premix prestarter (PP) (Food plant-Motycz, Poland) and free access to water was allowed. Piglets were allotted to three experimental trials:
2—Second group, receiving 0.4 g/kg/b.w. of L-alanyl-L-glutamine (ala-gin), (2 ml solution/kg b.w.)
3—Third group, receiving 0.4 g/kgtb.w. α-keto-glutaric sodium salt, AKG, (2 ml solution/kg b.w.) once a day from the first day to the 35th day of life.
Animal weight gain was monitored every day before oral administration of saline, ala-gln or AKG. At the age of 35 days, piglets were sacrificed, eviscerated and bones were sampled.
Architectural and geometric properties of bone were estimated based on measurements of horizontal and vertical cross section as well as interior and exterior diameter of the bone.
Mean relative wall thickness (MRWT) expresses the ratio of wall to lumen measures and serves as an indicator in the process of architectural adaptation of bone to physiological stress during the growth of the body. When the lumen increases with unchanged wall thickness the MRWT decreases but bone resistance to strain increases.

[2] = test system: ulna bone; conditions: group A, 0.8 g/kg body weight oral, p<0.01

Structure (SMILES): O=C(O)CCC(=O)C(=O)O [AKG, alpha-ketoglutaric acid]
- Mean relative wall thickness (MRWT) femur [1]: 0.70 ± 0.07
- Mean relative wall thickness (MRWT) humerus [1]: 0.57 ± 0.08
- BMD-Vi (Volumetric index) of the ulna bone, difference compared to saline treated turkeys ([2]; left wing control (intact)): 14.8%
- BMD-Vi (Volumetric index) of the ulna bone, difference compared to saline treated turkeys ([2]; right wing experimental (neurectomized, fracture of the ulnae)): about 35.7%

Read-outs that look alike come from different tables or passages of the source.
